{"source": "patent US20110009335A1", "about": "“Anticancer Treatments” (priority 2008, published 2011)", "key": {"[1]": {"test_system": "CAKI-1 human renal tumor xenograft", "assay": "Aplidine with sorafenib, CAKI-1 xenograft in athymic nude mice (Example 1)", "format": "in vivo", "method": "(§1) Female athymic nude mice (Harlan Sprague Dawley, Madison, Wis.) were utilized for all experiments. Mice were implanted with tumor fragments or a cell suspension when mice were 5 weeks of age. Animals were housed in ventilated rack caging, 5 mice per cage, with food and water ad libitum. The mice were acclimated for 1 week prior to being implanted with tumor fragments or cell suspensions.\nTumor measurements were determined by using Vernier calipers. The formula to calculate volume for a prolate ellipsoid was used to estimate tumor volume (mm^3) from 2-dimensional tumor measurements: Tumor volume (mm^3)=[L×W^2]÷2, where L is the length and it is the longest diameter in mm, and W is the width and it is the shortest diameter in mm of a tumor. Assuming unit density, volume was converted to weight (i.e., 1 mm^3=1 mg).\nBody weights were recorded on treatment days and when tumor sizes were measured. In those days wherein the two drugs were administered the same day, the combination therapy groups were treated by co-administering the two drugs at the same time, with no attempt to sequence the treatments.\nAplidine was provided in the form of vials of lyophilized aplidine powder which was reconstituted in Cremophor EL/ethanol/water (CEW) 15/15/70 to a concentration of 0.5 mg/ml. […]\n(§2) Tumor size measurements were recorded twice weekly from the treatment initiation until the termination of the study.\n(§3) Mean, standard deviation and standard error of the mean were determined for tumor volume for all animal groups at all assessments. […]\nDetermine the % of tumor growth inhibition, as 100−% T/C, for each of the drugs administered as monotherapy at the doses used in the combinations. % T/C was obtained by comparing the mean tumor weight in the treatment groups (T) to the mean tumor weight in the control group (C) (T/C×100%). • 2. […] This “expected response” was subtracted from the % of tumor growth inhibition determined for the combination therapy group: • a. […] If the resulting number was close to zero, the effect of combining the two drugs was determined as additive. • c."}, "[2]": {"test_system": "A498 human renal tumor xenograft", "assay": "Aplidine with sorafenib, A498 xenograft in athymic nude mice (Example 1)", "format": "in vivo", "method": "as §1\nA498 cells were grown in MEM, 2 mM L-glutamine and 10% FBS. Cells from in vitro passage 4-20 were implanted SC into study mice: 5×10^6 cells/mouse in 0.2 ml 50% Matrigel/50% medium without antibiotics or serum, using a 23 G needle and 1 cc syringe. Matrigel is a biological extracellular matrix that is liquid at 4° C. and solid at 37° C., and it promotes tumor growth by maintaining the cells in close association in a localized area. Bacterial cultures were performed on aliquots of the cells prepared for implantation.\nTumor measurements were determined by using Vernier calipers. […]\nBody weights were recorded on treatment days and when tumor sizes were measured. […]\nas §2, §3"}}, "data": [{"compound": "CNC(=O)c1cc(Oc2ccc(NC(=O)Nc3ccc(Cl)c(C(F)(F)F)c3)cc2)ccn1", "note": "[sorafenib]", "values": [{"measurement": "antitumor activity as single agent (monotherapy)", "setting": "[1]; doses and schedules tested", "result": "inactive"}, {"measurement": "% Inhibition G5", "setting": "[1]; sorafenib 30 mg/kg/day, one value per day, days 13-49", "result": 2.0, "unit": "%"}, {"measurement": "% Inhibition G4", "setting": "[1]; sorafenib 60 mg/kg/day, one value per day, days 13-49", "result": "−10.2", "unit": "%"}, {"measurement": "antitumor activity as single agent (monotherapy)", "setting": "[2]; doses and schedules tested", "result": "did not reach the NCI criteria for activity"}, {"measurement": "% Inhibition G5", "setting": "[2]; sorafenib 30 mg/kg/day, one value per day, days 26-61", "result": 1.3, "unit": "%"}]}]}
